Source: patent publication US20090053582A1, “METHOD OF COATING BILIRUBIN OXIDASE” (SONY CORPORATION, priority 2007, published 2009)

Key:
[1] = system: bilirubin oxidase (BOD), free BOD 1 (not coated, stored at 4° C.); details: pH 7.0, 25° C., oxygen saturation
Procedure: As a control, BOD on which coating was not performed and which was stored at 4° C. for the same period of time as that is necessary for the process of preparing coated BOD 2 (hereinafter referred to as “free BOD 1”) was used.
(§1) The Michaelis constants (KM) and the reaction rate constants (kcat) of coated BOD 1, coated BOD 2, and free BOD 1 prepared above were measured under the conditions shown in Table 1 below. […] The amount of protein of each BOD sample was determined by bicinchoninic acid (BCA) colorimetric protein assay from a calibration curve of bovine serum albumin (BSA) used as a standard protein.

[2] = system: bilirubin oxidase (BOD), coated BOD 3 (Example 1, coated at 4° C.)
Procedure: (§2) First, 40 mg of BOD and 1 mg of ethylenediaminetetraacetic acid (EDTA) used as a stabilizer were dissolved in 3.8 mL of a 100 mM boric acid solution (pH 9.3). Subsequently, 6.0 mg of N-acryloxysuccinimide was dissolved in 0.2 mL of DMSO, and the solution was then gradually added to the boric acid buffer. The resulting solution was allowed to react at 4° C. for 10 hours. Subsequently, the resulting acryloylated BOD in which acryloyl groups were introduced was purified using a Sephadex G25 column at 4° C.
(§3) Subsequently, at 4° C., a mixture prepared by mixing acrylamide and N,N′-methylenebisacrylamide in a molar ratio of 10:1 was dissolved in 0.5 mL of deionized water free of oxygen. The solution was homogeneously added to the above acryloylated BOD solution, and the resulting solution was allowed to react for 60 minutes. The reaction was further performed in the presence of nitrogen at 4° C. for 60 minutes. Finally, the coated BOD (hereinafter referred to as “coated BOD 3”) was purified using a Sephadex G75 column.
(§4) The Michaelis constants (KM) and the reaction rate constants (kcat) of coated BOD 3, coated BOD 4, free BOD 2, and free BOD 3 prepared above were measured under the conditions shown in Table 4. […] The amount of protein of each BOD sample was determined by BCA colorimetric protein assay from a calibration curve of BSA used as a standard protein.

[3] = system: bilirubin oxidase (BOD), coated BOD 4 (Example 1, coated at 4° C.)
Procedure: as §2, §3, §4

[4] = system: bilirubin oxidase (BOD), coated BOD 1 (Reference Example)
Procedure: (§5) The solution was homogeneously added to the above acryloylated BOD solution, and the resulting solution was allowed to react for 60 minutes.
as §1

[5] = system: bilirubin oxidase (BOD), coated BOD 2 (Reference Example)
Procedure: as §5, §1

[6] = system: bilirubin oxidase (BOD), free BOD 3 (not coated, stored at 4° C.); details: pH 7.0, 25° C., oxygen saturation
Procedure: (§6) As controls, BOD on which coating was not performed and which was stored at 25° C. for the same period of time as that is necessary for the process of preparing coated BOD 4 (hereinafter referred to as “free BOD 2”), and BOD on which coating was not performed and which was stored at 4° C. for the same period of time as that is necessary for the process of preparing coated BOD 4 (hereinafter referred to as “free BOD 3”) were used.
as §4

[7] = system: bilirubin oxidase (BOD), free BOD 2 (not coated, stored at 25° C.); details: oxygen saturation
Procedure: as §6, §4

**Q.** With `CCn1c(=NN=c2sc3cc(S(=O)(=O)O)ccc3n2CC)sc2cc(S(=O)(=O)O)ccc21.N.N` [ABTS, 2,2′-Azino-bis(3-ethylbenzothiazoline-6-sulfonic acid) diammonium salt] as the compound, how does the “kcat/KM,ABTS” value [1] read?
**A.** 7.6 M^−1s^−1 × 10^5

**Q.** And the “kcat/KM,ABTS” value ([2]; coated BOD 3, pH 7.0, 25° C., oxygen saturation)?
**A.** 0.92 M^−1s^−1 × 10^5

**Q.** What about the “reaction rate constant (kcat) relative to free BOD 2” value ([2]; coated BOD 3 vs free BOD 2) of the same compound?
**A.** about ⅓

**Q.** What about the “reaction rate constant (kcat) relative to free BOD 3” value ([2]; coated BOD 3 vs free BOD 3) of the same compound?
**A.** about ¼

**Q.** And the “kcat/KM,ABTS” value ([3]; coated BOD 4, pH 7.0, 25° C., oxygen saturation)?
**A.** 0.79 M^−1s^−1 × 10^5

**Q.** And the “reaction rate constant (kcat) relative to free BOD 2” value ([3]; coated BOD 4 vs free BOD 2)?
**A.** about ⅓

**Q.** And the “reaction rate constant (kcat) relative to free BOD 3” value ([3]; coated BOD 4 vs free BOD 3)?
**A.** about ¼

**Q.** What about the “kcat/KM,ABTS” value ([4]; coated BOD 1, pH 7.0, 25° C., oxygen saturation) of the same compound?
**A.** 0.27 M^−1s^−1 × 10^5

**Q.** What about the “reaction rate constant (kcat) relative to free BOD 1” value ([4]; coated BOD 1 vs free BOD 1) of the same compound?
**A.** about 1/23

**Q.** And the “kcat/KM,ABTS” value ([5]; coated BOD 2, pH 7.0, 25° C., oxygen saturation)?
**A.** 0.048 M^−1s^−1 × 10^5

**Q.** And the “reaction rate constant (kcat) relative to free BOD 1” value ([5]; coated BOD 2 vs free BOD 1)?
**A.** about 1/122

**Q.** What about the “kcat/KM,ABTS” value [6] of the same compound?
**A.** 6.0 M^−1s^−1 × 10^5

**Q.** What about the “kcat/KM,ABTS” value ([7]; free BOD 2, pH 7.0, 25° C.) of the same compound?
**A.** 4.7 M^−1s^−1 × 10^5

**Q.** What about the Km ([7]; read-out: KM,ABTS, free BOD 2, 0.603 nM, ABTS 0.05 to 7 mM, pH 7.0 sodium phosphate, 25° C., 730 nm) of the same compound?
**A.** 337 µM
